From paper doi:10.1101/2022.07.21.500952, “Mechanistic basis for targeting homologous recombination defective liver cancer via synthetic lethality” (bioRxiv, 2022)

Target: T1, His-WDR70 (112-654 aa) (UniProt Q9NW82 112-654)
T1 construct: also called recombinant His-WDR70; recombinant WDR70
T1 sequence (looked up): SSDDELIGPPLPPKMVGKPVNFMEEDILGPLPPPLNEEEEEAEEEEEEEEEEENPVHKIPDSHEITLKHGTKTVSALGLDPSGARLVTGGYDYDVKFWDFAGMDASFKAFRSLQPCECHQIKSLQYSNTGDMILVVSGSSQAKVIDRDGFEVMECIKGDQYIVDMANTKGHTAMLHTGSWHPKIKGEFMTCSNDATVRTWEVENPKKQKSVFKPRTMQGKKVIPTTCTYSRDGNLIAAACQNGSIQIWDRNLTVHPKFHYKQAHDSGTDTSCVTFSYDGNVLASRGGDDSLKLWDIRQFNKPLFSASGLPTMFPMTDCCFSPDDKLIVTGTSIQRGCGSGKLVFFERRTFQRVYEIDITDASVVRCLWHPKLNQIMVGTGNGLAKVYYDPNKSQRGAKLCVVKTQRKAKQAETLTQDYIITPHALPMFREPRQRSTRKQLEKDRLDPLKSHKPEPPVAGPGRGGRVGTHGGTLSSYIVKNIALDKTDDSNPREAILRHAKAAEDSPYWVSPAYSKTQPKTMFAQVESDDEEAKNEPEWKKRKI
Assay: pull-down; co-precipitation of purified recombinant His-WDR70 and Strep-PSMD5
Details: both partners purified

binding result: binds
B1: Strep-PSMD5^Hsm3 (recombinant) (natural protein, UniProt Q16401 1-504, looked up)
chain: MAAQALALLREVARLEAPLEELRALHSVLQAVPLNELRQQAAELRLGPLFSLLNENHREKTTLCVSILERLLQAMEPVHVARNLRVDLQRGLIHPDDSVKILTLSQIGRIVENSDAVTEILNNAELLKQIVYCIGGENLSVAKAAIKSLSRISLTQAGLEALFESNLLDDLKSVMKTNDIVRYRVYELIIEISSVSPESLNYCTTSGLVTQLLRELTGEDVLVRATCIEMVTSLAYTHHGRQYLAQEGVIDQISNIIVGADSDPFSSFYLPGFVKFFGNLAVMDSPQQICERYPIFVEKVFEMIESQDPTMIGVAVDTVGILGSNVEGKQVLQKTGTRFERLLMRIGHQSKNAPVELKIRCLDAISSLLYLPPEQQTDDLLRMTESWFSSLSRDPLELFRGISSQPFPELHCAALKVFTAIANQPWAQKLMFNSPGFVEYVVDRSVEHDKASKDAKYELVKALANSKTIAEIFGNPNYLRLRTYLSEGPYYVKPVSTTAVEGAE
notes: also called recombinant PSMD5^Hsm3; purified PSMD5^Hsm3; source: recombinant, purified
